Patent US20220177587A1, “METHODS AND USES OF VARIANT CD80 FUSION PROTEINS AND RELATED CONSTRUCTS” (Alpine Immune Sciences, Inc., priority 2018, published 2022)
pEC50: −log10 of the molar value.

Target: T1, huCTLA4 (Homo sapiens, UniProt P16410)
T1 construct: huCTLA4 and huPD-L1, full-length mammalian surface expression constructs were generated; expressed in transfected cells; host or cells: CHO cells, lentiviral transduction, sorted to >98% purity
Test: Flow binding to CHO cells stably expressing CTLA4
Conditions: flow binding; read-out: CHO/CTLA4 EC50
Protocol: Binding of selected immunomodulatory fusion proteins to cognate binding partners was assessed. […] Cells were sorted in a Bio-Rad S3 Cell Sorter (Bio-Rad Corp., USA) to >98% purity. Jurkat/IL2 reporter cells, which endogenously express CD28, were used to detect binding to CD28.
For staining and analysis by flow cytometry, 100,000 cells of appropriate transfected cells were plated in 96-well round bottom plates. Cells were spun down and resuspended in staining buffer (phosphate buffered saline (PBS), 1% bovine serum albumin (BSA), and 0.1% sodium azide) for 20 minutes to block non-specific binding. […] Primary staining was performed on ice for 45 minutes, before washing cells in staining buffer twice. Phycoerythrin (PE)-conjugated anti-human Fc (Jackson ImmunoResearch, USA) was diluted 1:150, added to cells and incubated another 30 minutes on ice. Cells were then washed twice with 150 μL/well stain buffer, fixed in 2% formaldehyde/PBS, and analyzed on Intellicyt flow cytometer (Intellicyt Corp., USA). PE Mean Fluorescence Intensity (MFI) was calculated for each cell type with FlowJo Version 10 software (FlowJo LLC, USA).
Binding assays were carried out to assess the specificity and affinity of multivalent proteins to cell-expressed CTLA-4, CD28, and PD-L1 counter structures.
The EC50 for binding also was determined.

pEC50: 8.44
Substance: CD80 (E88D/K89R/D90K/A91G/F92Y/K93R) ECD-Fc: variant full CD80 ECD fused to effector human IgG1 Fc (SEQ ID NO:1527)
